Data: patent US9216173B2, “2-Pyridyl carboxamide-containing spleen tyrosine kinase (SYK) inhibitors” (Merck Sharp & Dohme Corp., priority 2011, dated 2015)

Target: T1, recombinant human GST-SYK (Homo sapiens, UniProt P43405)
T1 construct: purchased Carna Biosciences 08-176
Assay: Homogeneous Time-Resolved Fluorescence (HTRF) assay for the recombinant human Syk enzyme
Format: biochemical
Conditions: GST-hSYK 5 pM, ATP 25 μM, 10-dose titration 10 μM to 0.508 nM
Protocol: Homogeneous Time-Resolved Fluorescence (HTRF) Assay for the Recombinant Human Syk Enzyme
A recombinant GST-hSYK fusion protein was used to measure potency of compounds to inhibit human Syk activity. […] Final volume of the reaction was 10 μL. Phosphorylation of the peptide was allowed to proceed for 45 minutes at room temperature. To quench the reaction and detect the phosphorylated product, 2 nM of a Europium-anti-phosphotyrosine antibody (Perkin Elmer #AD0161) and 70 nM SA-APC (Perkin-Elmer #CR130-100) were added together in 15 mM Tris pH 7.5, 40 mM EDTA, 0.01% tween 20. Final volume of the quenching solution was 10 μL. The resulting HTRF signal was measured after 30 minutes on an EnVision (Perkin-Elmer) reader using a time-resolved fluorescence protocol.

[1] = read-out: rhSYK Activity (IC50 rating)

NC(=O)c1ncc(N[C@@H]2CS(=O)(=O)CC[C@@H]2N)cc1Nc1cccc(-n2nccn2)n1 (relative stereo) [Example 1.84, rel-5-{[(3S,4S)-4-amino-1,1-dioxidotetrahydro-2H-thiopyran-3-yl]amino(-3-{[6-(2H-1,2,3-triazol-2-yl)pyridin-2-yl]amino}pyridine-2-carboxamide]
IC50 (read-out: IC50): 0.0018 µM
IC50 [1]: < 0.01 µM

Cc1cc(N(C)C)cc(Nc2cc(N[C@@H]3CCCC[C@@H]3N)cnc2C(N)=O)n1 [Example 1.78]
IC50 [1]: < 0.01 µM

Cc1nc(Nc2cc(N[C@@H]3CCCC[C@@H]3N)cnc2C(N)=O)ccc1-c1ccncc1 [Example 3.23, 5-{[(lR,2S)-2-aminocyclohexyl]amino}-3-[(2-methyl-3,4′-bipyridin-6-yl)amino]pyridine-2-carboxamide]
IC50 [1]: < 0.01 µM

Read-outs that look alike come from different tables or passages of the source.
